# Experimental water solubility values from OPERA 2.9

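OPERA's authors assembled the values from existing databases and did not measure them anew. One number stands for a compound and property, with no spread given. Method, purity and exact conditions of the single measurements are not given. Where a salt, mixture or single isomer is drawn, the source does not say that exactly this form was tested. Some entries may be limits or estimates that an upstream database listed as plain numbers.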

Solubility in water is on a log10 molar scale (set defined at 25 °C).

For NC(=O)C(=O)N(CCO)/N=C/C=C/c1ccc([N+](=O)[O-])o1 the data give log solubility -3.403 (log10 mol/L). For COc1cc(C(=O)CO)ccc1O the data give log solubility -1.783 (log10 mol/L). NC(=O)NN=CC=Cc1ccc([N+](=O)[O-])o1 has log solubility -3.144 (log10 mol/L). CCCC(=O)Nc1ccccc1 has log solubility -2.14 (log10 mol/L). NC(=O)NCc1ccccc1 is reported with log solubility -0.95 (log10 mol/L). C=C1/C(=C\C=C2/CCC[C@]3(C)[C@@H]([C@H](C)/C=C/[C@@H](O)C4CC4)CC[C@@H]23)C[C@@H](O)C[C@@H]1O has log solubility -4.485 (log10 mol/L).

For CCCCN(CCC#N)c1ccc(N=Nc2ccc([N+](=O)[O-])cc2)cc1 the data give log solubility -7.699 (log10 mol/L). C[C@@H]1O[C@@H](Oc2c(-c3ccc(O)c(O)c3)oc3cc(O)cc(O)c3c2=O)[C@H](O)[C@H](O)[C@H]1O has log solubility -3.845 (log10 mol/L). CSc1nc2ncncc2[nH]1 is reported with log solubility -2.033 (log10 mol/L). The entry for Clc1ccc(I)cc1 lists log solubility -3.785 (log10 mol/L). CSc1ncc2[nH]cnc2n1 is reported with log solubility -2.547 (log10 mol/L). For C1CC1 the data give log solubility -2.043 (log10 mol/L).

For CCOC(=O)/C(=C\c1cccc([N+](=O)[O-])c1)N=CO the data give log solubility -2.47 (log10 mol/L). O=C(O)[C@@H]1CC[C@@H](C(=O)O)S1 has log solubility -0.334 (log10 mol/L). Listed for COc1ccc(CCC(=O)O)cc1: log solubility -2.21 (log10 mol/L). Listed for CCOC(=O)/C(=C\c1ccccc1Cl)N=CO: log solubility -2.999 (log10 mol/L). The entry for C=CC(=O)CCC lists log solubility -0.83 (log10 mol/L). The entry for Cc1cc(C)c(Nc2ccc(Nc3c(C)cc(C)cc3C)c3c2C(=O)c2ccccc2C3=O)c(C)c1 lists log solubility -7.825 (log10 mol/L).

Clc1cc(Cl)c(Oc2ccccc2)c(Cl)c1 is reported with log solubility -6.11 (log10 mol/L). CC(C)CCOC(=O)c1c(C(=O)O)cccc1[N+](=O)[O-] is reported with log solubility -3.069 (log10 mol/L). For Nc1cnc2ncnc(N)c2n1 the data give log solubility -3.59 (log10 mol/L). The entry for CC(=O)OCOC(=O)c1ccccc1OC(C)=O lists log solubility -2.016 (log10 mol/L). The entry for COC(=O)c1ccc(C(=O)OC)c(N)c1 lists log solubility -3.718 (log10 mol/L). The entry for O=C(N[C@H](C(=O)O)c1ccccc1)c1ccccc1 lists log solubility -2.246 (log10 mol/L).

Nc1ncn([C@@H]2O[C@H](CO)[C@@H](O)[C@H]2O)c(=O)n1 has log solubility -1.305 (log10 mol/L). For O=C(O)C1c2ccccc2Cc2ccccc21 the data give log solubility -2.351 (log10 mol/L). The entry for O=C(O)C(=O)CO lists log solubility -0.318 (log10 mol/L). C1=CC2CCC1C2 has log solubility -2.848 (log10 mol/L). Listed for CCCCOCC: log solubility -1.55 (log10 mol/L). Clc1ccc(Oc2cc(Cl)c(Cl)cc2Cl)c(Cl)c1 has log solubility -7.61 (log10 mol/L).

The entry for Cc1cc(O)c(C(C)C)cc1C1(c2cc(C(C)C)c(O)cc2C)OS(=O)(=O)c2ccccc21 lists log solubility -3.631 (log10 mol/L). For CCS(=O)(=O)CCn1c([N+](=O)[O-])cnc1C the data give log solubility -1.912 (log10 mol/L). For COc1ccc(NC(=O)c2cc3ccccc3c(/N=N/c3cc(C(=O)Nc4ccc(S(=O)(=O)[O-])cc4)ccc3C)c2O)cc1.COc1ccc(NC(=O)c2cc3ccccc3c(/N=N/c3cc(C(=O)Nc4ccc(S(=O)(=O)[O-])cc4)ccc3C)c2O)cc1.[Ca+2] the data give log solubility -7.051 (log10 mol/L). For O=C(Nc1ccc(NC(=O)c2cc3ccccc3c(N=Nc3cc(Cl)ccc3Cl)c2O)cc1)c1cc2ccccc2c(N=Nc2cc(Cl)ccc2Cl)c1O the data give log solubility -8.087 (log10 mol/L). Listed for Clc1ccc(Oc2cc(Cl)ccc2Cl)c(Cl)c1: log solubility -6.77 (log10 mol/L). Listed for Nc1nc2[nH]cnc2c(=O)[nH]1: log solubility -4.429 (log10 mol/L).

For CC(=O)C(N=Nc1cccc(OCCOc2ccccc2N=NC(C(C)=O)C(=O)Nc2ccc3[nH]c(=O)[nH]c3c2)c1)C(=O)Nc1ccc2[nH]c(=O)[nH]c2c1 (stereo not given) the data give log solubility -7.634 (log10 mol/L).

Extract of 2 entries:

| structure (SMILES) | log solubility (log10 mol/L) |
|---|---|
| NC(=O)NCc1ccccc1 | -0.95 |
| O=C(O)C(=O)CO | -0.318 |

Source: data files of OPERA 2.9 (Mansouri et al.), github.com/kmansouri/OPERA.